The target in test [1] is T1, Glutamate [NMDA] receptor (UniProt O15399+O60391+Q05586+Q12879+Q13224+Q14957+Q8TCU5). Description: Affinity to N-methyl-D-aspartate glutamate receptor using [3H]MK-801 radioligand in pig brain cortex membranes.
Test [2] concerns the target Kappa-type opioid receptor (Cavia porcellus, UniProt P41144). Description: Affinity to opioid receptor kappa 1 using [3H]U-69593 as radioligand in homogenates of guinea pig brain membranes.
Another test concerns the target Mu-type opioid receptor (Cavia porcellus, UniProt P97266). Nature of the test: Affinity to mu-receptor, using [3H]DAMGO as radioligand in homogenates of guinea pig brain membranes.
A short description of test [3]: Affinity to sigma-1-receptor, using [3H]pentazocine as radioligand in homogenates of guinea pig brain membranes.
Test [4] deals with T1, Glutamate [NMDA] receptor. Nature of the test: Affinity to NMDA receptor, using [3H]MK-801 as radioligand in pig brain cortex membranes.

Protein sequences, listed by entry. Tags and fused reporters are not part of them. Lines headed by an entry give the natural chain unless they say otherwise; changes in a name come on top.
UniProt O15399: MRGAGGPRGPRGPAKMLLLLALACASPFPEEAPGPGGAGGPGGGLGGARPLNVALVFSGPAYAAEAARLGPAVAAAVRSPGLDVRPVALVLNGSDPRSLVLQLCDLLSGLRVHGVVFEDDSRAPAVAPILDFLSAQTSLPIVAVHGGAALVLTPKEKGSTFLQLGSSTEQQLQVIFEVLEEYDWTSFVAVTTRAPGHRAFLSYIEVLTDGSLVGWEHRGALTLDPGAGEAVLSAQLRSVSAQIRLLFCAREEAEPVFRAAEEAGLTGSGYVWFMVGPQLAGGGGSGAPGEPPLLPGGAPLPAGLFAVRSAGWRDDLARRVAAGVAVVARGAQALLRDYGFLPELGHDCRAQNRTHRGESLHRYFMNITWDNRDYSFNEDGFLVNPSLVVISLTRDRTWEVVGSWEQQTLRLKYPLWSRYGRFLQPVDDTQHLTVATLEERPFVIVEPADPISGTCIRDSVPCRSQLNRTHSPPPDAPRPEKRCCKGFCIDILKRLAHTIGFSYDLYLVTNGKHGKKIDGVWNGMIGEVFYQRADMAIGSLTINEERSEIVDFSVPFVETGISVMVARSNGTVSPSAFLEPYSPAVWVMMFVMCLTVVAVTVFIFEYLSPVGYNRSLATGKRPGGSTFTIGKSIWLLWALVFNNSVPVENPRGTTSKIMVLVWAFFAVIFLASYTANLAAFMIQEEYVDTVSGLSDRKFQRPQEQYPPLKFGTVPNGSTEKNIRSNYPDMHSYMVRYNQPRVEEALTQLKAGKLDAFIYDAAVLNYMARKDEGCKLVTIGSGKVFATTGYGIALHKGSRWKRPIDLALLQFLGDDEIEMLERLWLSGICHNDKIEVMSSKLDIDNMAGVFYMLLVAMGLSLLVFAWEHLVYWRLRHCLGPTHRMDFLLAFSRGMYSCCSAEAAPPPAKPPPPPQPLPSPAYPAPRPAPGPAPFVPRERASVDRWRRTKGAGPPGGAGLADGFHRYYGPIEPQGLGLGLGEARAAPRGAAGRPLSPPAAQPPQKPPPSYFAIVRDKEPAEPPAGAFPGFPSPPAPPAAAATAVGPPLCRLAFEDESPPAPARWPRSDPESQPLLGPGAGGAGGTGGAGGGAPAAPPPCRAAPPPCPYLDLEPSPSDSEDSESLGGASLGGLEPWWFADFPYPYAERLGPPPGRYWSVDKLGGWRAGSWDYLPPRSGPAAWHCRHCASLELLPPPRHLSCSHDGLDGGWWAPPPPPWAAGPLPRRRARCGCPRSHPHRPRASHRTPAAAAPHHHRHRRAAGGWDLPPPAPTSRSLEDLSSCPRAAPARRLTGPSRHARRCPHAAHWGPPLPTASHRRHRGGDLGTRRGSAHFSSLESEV
UniProt O60391: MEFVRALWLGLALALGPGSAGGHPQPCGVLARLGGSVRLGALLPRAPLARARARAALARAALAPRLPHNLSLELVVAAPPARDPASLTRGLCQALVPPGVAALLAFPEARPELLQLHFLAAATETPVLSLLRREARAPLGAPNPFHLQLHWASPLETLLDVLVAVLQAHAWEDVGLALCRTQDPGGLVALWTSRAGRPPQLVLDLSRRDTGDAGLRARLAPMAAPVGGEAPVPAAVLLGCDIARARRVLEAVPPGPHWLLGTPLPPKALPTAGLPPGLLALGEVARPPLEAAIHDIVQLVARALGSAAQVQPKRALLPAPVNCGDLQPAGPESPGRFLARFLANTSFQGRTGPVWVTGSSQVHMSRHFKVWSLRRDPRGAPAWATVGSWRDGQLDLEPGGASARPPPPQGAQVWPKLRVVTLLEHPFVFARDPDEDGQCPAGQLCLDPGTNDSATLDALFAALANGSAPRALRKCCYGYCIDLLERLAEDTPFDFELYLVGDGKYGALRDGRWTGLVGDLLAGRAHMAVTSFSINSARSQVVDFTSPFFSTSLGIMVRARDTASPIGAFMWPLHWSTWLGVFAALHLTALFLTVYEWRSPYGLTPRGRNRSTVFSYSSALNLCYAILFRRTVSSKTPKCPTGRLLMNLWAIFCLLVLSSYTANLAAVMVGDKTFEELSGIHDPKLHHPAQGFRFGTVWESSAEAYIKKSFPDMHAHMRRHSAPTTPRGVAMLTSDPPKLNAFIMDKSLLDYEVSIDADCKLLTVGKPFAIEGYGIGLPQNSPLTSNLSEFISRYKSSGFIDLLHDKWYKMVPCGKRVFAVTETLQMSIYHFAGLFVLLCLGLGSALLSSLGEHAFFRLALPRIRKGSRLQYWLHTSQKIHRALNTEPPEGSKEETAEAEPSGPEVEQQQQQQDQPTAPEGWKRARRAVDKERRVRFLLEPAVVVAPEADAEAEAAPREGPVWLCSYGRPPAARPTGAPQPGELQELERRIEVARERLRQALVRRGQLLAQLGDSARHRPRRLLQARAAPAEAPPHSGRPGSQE
UniProt Q13224: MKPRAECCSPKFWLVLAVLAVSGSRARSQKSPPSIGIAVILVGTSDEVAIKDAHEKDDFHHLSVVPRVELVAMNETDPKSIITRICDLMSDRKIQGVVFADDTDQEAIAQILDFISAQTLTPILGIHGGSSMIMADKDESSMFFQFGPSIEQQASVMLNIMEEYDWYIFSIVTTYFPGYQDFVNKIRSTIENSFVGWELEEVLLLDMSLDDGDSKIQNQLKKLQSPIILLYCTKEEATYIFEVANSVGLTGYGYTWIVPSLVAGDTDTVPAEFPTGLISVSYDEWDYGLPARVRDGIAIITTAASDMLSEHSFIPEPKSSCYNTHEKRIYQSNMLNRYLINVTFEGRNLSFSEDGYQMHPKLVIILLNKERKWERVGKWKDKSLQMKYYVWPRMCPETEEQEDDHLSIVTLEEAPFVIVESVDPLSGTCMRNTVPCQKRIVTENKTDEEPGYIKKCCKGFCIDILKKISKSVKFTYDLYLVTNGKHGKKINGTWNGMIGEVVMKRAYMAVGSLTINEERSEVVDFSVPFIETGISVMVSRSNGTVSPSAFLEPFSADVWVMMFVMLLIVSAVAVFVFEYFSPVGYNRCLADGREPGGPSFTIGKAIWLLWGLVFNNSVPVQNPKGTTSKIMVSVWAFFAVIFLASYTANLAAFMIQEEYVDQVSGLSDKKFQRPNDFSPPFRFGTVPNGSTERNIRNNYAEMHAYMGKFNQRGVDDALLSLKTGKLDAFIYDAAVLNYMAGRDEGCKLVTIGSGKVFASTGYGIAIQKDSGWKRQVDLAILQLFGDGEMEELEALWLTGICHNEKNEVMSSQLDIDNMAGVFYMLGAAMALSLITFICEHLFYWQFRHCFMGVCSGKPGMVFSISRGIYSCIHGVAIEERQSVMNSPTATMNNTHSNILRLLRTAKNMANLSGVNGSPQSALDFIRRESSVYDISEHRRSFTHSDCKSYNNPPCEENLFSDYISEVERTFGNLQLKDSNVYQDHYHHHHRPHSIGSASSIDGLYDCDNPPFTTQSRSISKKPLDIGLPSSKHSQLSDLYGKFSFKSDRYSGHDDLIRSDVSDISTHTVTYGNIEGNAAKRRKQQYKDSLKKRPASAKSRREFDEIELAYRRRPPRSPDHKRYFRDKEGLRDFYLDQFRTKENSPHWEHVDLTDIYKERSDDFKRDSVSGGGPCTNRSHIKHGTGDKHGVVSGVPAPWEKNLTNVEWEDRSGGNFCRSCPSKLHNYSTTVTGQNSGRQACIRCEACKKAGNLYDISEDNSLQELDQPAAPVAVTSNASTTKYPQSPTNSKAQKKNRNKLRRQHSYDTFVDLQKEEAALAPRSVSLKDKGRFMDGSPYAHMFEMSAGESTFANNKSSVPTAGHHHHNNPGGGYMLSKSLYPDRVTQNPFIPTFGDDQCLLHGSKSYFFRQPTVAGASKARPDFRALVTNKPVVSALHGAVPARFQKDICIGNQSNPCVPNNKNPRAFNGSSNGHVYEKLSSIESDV
UniProt Q8TCU5: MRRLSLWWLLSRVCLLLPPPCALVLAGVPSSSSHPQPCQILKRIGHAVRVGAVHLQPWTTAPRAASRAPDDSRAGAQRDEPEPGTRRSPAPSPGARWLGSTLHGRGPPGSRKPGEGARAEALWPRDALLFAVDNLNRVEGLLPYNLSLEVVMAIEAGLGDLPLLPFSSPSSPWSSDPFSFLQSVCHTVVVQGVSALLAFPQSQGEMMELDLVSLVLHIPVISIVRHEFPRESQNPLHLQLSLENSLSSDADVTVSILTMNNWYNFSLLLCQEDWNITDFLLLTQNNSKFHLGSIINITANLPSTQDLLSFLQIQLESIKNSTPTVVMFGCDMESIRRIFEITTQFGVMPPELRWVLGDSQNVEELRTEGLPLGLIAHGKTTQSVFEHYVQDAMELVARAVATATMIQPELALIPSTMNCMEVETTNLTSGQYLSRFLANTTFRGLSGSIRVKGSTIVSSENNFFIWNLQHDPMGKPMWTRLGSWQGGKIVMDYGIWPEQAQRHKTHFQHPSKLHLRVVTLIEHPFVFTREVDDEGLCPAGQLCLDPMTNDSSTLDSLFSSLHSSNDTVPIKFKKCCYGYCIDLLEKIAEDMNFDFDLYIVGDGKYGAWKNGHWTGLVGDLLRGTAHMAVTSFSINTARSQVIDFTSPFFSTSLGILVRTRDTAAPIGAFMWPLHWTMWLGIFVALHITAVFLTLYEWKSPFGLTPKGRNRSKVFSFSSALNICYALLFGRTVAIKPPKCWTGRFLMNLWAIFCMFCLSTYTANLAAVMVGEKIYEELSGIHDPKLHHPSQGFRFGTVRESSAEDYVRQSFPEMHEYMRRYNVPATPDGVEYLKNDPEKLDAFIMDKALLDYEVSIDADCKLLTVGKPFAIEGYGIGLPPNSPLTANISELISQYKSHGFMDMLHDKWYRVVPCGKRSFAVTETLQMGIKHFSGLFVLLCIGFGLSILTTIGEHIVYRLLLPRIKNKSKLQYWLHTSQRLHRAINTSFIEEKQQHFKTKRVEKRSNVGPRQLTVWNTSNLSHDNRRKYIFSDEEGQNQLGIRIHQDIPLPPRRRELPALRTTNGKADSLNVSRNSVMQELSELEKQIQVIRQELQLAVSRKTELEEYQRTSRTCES
UniProt P41144: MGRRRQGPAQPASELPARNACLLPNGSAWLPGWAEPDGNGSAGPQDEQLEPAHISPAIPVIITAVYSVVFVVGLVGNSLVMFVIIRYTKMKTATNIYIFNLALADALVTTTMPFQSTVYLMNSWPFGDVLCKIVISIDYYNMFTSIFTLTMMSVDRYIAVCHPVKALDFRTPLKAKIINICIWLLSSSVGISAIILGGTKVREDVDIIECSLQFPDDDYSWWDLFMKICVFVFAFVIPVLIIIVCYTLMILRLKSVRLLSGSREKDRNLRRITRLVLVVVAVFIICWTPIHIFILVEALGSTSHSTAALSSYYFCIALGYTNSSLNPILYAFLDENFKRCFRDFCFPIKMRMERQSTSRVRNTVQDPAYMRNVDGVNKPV
UniProt P97266, whole entry, looked up: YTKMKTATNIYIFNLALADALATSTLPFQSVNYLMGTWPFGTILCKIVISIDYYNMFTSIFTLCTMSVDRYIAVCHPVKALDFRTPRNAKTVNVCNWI

The source of these data is ChEMBL document CHEMBL1134568.

The term Ki denotes the equilibrium dissociation constant of an inhibitor or competing ligand from its target. Low values mean a stronger hold on the target, high ones a looser hold on the target.

Turning to `CCC(=O)N1CCN(C(=O)Cc2ccc(Cl)c(Cl)c2)[C@H]([C@H](C)N2CCCC2)C1`, the Ki in test [1] was greater than 10000 nM; in test [2], 0.67 nM; at Mu-type opioid receptor, 19100 nM; in test [3], greater than 1000 nM.
`COC(=O)N1CCN(C(=O)Cc2ccc(Cl)c(Cl)c2)[C@@H]([C@@H](C)N2CCCC2)C1` [listing 1 of 2 here] showed a Ki in test [3] greater than 1000 nM.
In turn, `c1ccc(C2(N3CCCCC3)CCCCC2)cc1` came in with a Ki in test [4] of 15.3 nM.
For `CCC(=O)N1CCN(C(=O)Cc2ccc(Cl)c(Cl)c2)[C@@H]([C@H](C)N2CCCC2)C1`, the Ki in test [1] was greater than 10000 nM; in test [2] it was greater than 10000 nM; on Mu-type opioid receptor, greater than 10000 nM; in test [3], greater than 1000 nM.
`CCC(=O)N1CCN(C(=O)Cc2ccc(Cl)c(Cl)c2)[C@H]([C@@H](C)N2CCCC2)C1`: the Ki in test [1] is greater than 10000 nM; in test [2], 43.4 nM; at Mu-type opioid receptor, greater than 1000 nM; in test [3], greater than 1000 nM.
In turn, `COC(=O)N1CCN(C(=O)Cc2ccc(Cl)c(Cl)c2)[C@H](CN2CCCC2)C1` had a Ki in test [2] of 0.45 nM.
`COC(=O)N1CCN(C(=O)Cc2ccc(Cl)c(Cl)c2)[C@H]([C@H](C)N2CCCC2)C1` [listing 1 of 2 here]: the Ki in test [3] was greater than 1000 nM.
As to `C[C@H]([C@H]1CN(C(=O)OC(C)(C)C)CCN1C(=O)Cc1ccc(Cl)c(Cl)c1)N1CCCC1`, the Ki in test [1] is greater than 10000 nM; in test [2] it was 206 nM; at Mu-type opioid receptor, greater than 10000 nM; in test [3], greater than 1000 nM.
Take `C[C@H](C1CN(c2ccccc2)CCN1C(=O)Cc1ccc(Cl)c(Cl)c1)N1CCCC1` (some centres not stated) [listing 1 of 2 here]: the Ki in test [3] is greater than 1000 nM.
On to `COC(=O)N1CCN(C(=O)Cc2ccc(Cl)c(Cl)c2)[C@@H]([C@@H](C)N2CCCC2)C1` [listing 2 of 2 here], for which the Ki was greater than 10000 nM in test [1], 2.4 nM in test [2] and 6.8 nM at Mu-type opioid receptor.
In the case of `C[C@@H](C1CN(c2ccccc2)CCN1C(=O)Cc1ccc(Cl)c(Cl)c1)N1CCCC1` (some centres not stated), the Ki in test [1] was greater than 10000 nM; in test [2], greater than 10000 nM; at Mu-type opioid receptor, greater than 10000 nM; in test [3], greater than 1000 nM.
Turning to `C[C@H]([C@@H]1CN(C(=O)OC(C)(C)C)CCN1C(=O)Cc1ccc(Cl)c(Cl)c1)N1CCCC1`, the inhibition constant (Ki) is greater than 10000 nM in test [1], 500 nM in test [2], greater than 1000 nM at Mu-type opioid receptor and greater than 1000 nM in test [3].
As for `CCCCN1CCN(C(=O)Cc2ccc(Cl)c(Cl)c2)C([C@H](C)N2CCCC2)C1` (some centres not stated) [listing 1 of 2 here], the Ki in test [3] was found to be 40.2 nM.
Consider `COC(=O)N1CCN(C(=O)Cc2ccc(Cl)c(Cl)c2)[C@H]([C@H](C)N2CCCC2)C1` [listing 2 of 2 here], for which the Ki in test [1] was greater than 10000 nM; in test [2], 0.31 nM; on Mu-type opioid receptor, 0.36 nM.
As to `COC(=O)N1CCN(C(=O)Cc2ccc(Cl)c(Cl)c2)[C@@H]([C@H](C)N2CCCC2)C1`, the Ki in test [1] was greater than 10000 nM; in test [2], 34.9 nM; at Mu-type opioid receptor, greater than 10000 nM; in test [3], greater than 1000 nM.
As to `CCC(=O)N1CCN(C(=O)Cc2ccc(Cl)c(Cl)c2)[C@@H]([C@@H](C)N2CCCC2)C1`, the Ki in test [1] is greater than 10000 nM; in test [2] it was 4.2 nM; at Mu-type opioid receptor it was greater than 1000 nM; in test [3], greater than 1000 nM.
`C[C@H](C1CN(c2ccccc2)CCN1C(=O)Cc1ccc(Cl)c(Cl)c1)N1CCCC1` (some centres not stated) [listing 2 of 2 here]: the values for the Ki (in test [1]; in test [2]; at Mu-type opioid receptor) were greater than 10000 nM, greater than 1000 nM and greater than 1000 nM, respectively.
For `CN(C(=O)Cc1ccc(Cl)c(Cl)c1)C1CCCCC1N1CCCC1` (configuration not stated), the affinity in test [2] corresponds to a Ki of 0.49 nM.
As for `CCCCN1CCN(C(=O)Cc2ccc(Cl)c(Cl)c2)C([C@H](C)N2CCCC2)C1` (some centres not stated) [listing 2 of 2 here], the figures for the Ki (in test [1]; in test [2]; on Mu-type opioid receptor) were greater than 10000 nM, 237 nM and greater than 1000 nM, respectively.
With `C[C@@H]([C@H]1CN(C(=O)OC(C)(C)C)CCN1C(=O)Cc1ccc(Cl)c(Cl)c1)N1CCCC1`, the Ki in test [1] is greater than 10000 nM; in test [2], greater than 10000 nM; on Mu-type opioid receptor, greater than 10000 nM; in test [3], greater than 1000 nM.
In the case of `COC(=O)N1CCN(C(=O)Cc2ccc(Cl)c(Cl)c2)[C@H]([C@@H](C)N2CCCC2)C1`, the Ki in test [1] is greater than 10000 nM; in test [2] it was 8.8 nM; on Mu-type opioid receptor it was greater than 1000 nM; in test [3], greater than 1000 nM.
`CCCCN1CCN(C(=O)Cc2ccc(Cl)c(Cl)c2)C([C@@H](C)N2CCCC2)C1` (some centres not stated): the Ki in test [1] is greater than 10000 nM; in test [2] it was 134 nM; on Mu-type opioid receptor it was greater than 1000 nM; in test [3], 81 nM.
For `C[C@@H]([C@@H]1CN(C(=O)OC(C)(C)C)CCN1C(=O)Cc1ccc(Cl)c(Cl)c1)N1CCCC1`, in that order: greater than 10000 nM, 13 nM, greater than 1000 nM and greater than 1000 nM.
